Literature values as cited in article PMC10642921.

Molecular target: calcineurin (UniProt Q08209)

Kd: 0.028 nM
Substance: calmodulin (from UniProt P0DP23)
